Laboratory results published in US4194009A, “Aryloxyphenylpropylamines for obtaining a psychotropic effect” (Eli Lilly and Company, priority 1976, dated 1980).

Test system: serotonin uptake by synaptosomes from rat brain
Test: blockage of serotonin uptake by synaptosomes from rat brain
Type: biochemical
Conditions: Table 2, serotonin 0.1 μM
From the text: This blockade is shown both in vitro with radioactive labelled compounds to determine the amount of monoamine uptake by synaptosomes from rat brain, and in vivo by a variety of methods. Among the physiologically active monoamines whose uptake is blocked by the compounds of this invention are included serotonin, norepinephrine and dopamine (3,4-dihydroxyphenylethylamine). […] Tables 1 and 2 which follow set forth the results of some of the in vitro determinations of the blockage of monoamine uptake by the compounds of this invention. In the tables, column 1 gives the R substituent on the 3-phenylpropylamine and columns 2-4, the concentration in micrograms per ml. that blocks the uptake of a particular amine by 50 percent for the amines--norephinephrine, serotonin, and dopamine. At the head of each column is given the concentration of the particular monoamine used in the experiment.

## CNCCC(Oc1ccc(C(F)(F)F)cc1)c1ccccc1 (stereo not shown) [p-trifluoromethylpenyl, N-methyl 3-(p-trifluoromethylphenoxy)-3-phenylpropylamine]
  Concentration in mcg./ml. that blocks 50% of amine uptake, Serotonin: .06 µg/mL
